Each compound was assayed against Human CD38 (Homo sapiens (Human), UniProt P28907) (assay: Determination of IC50 against human CD38 (CD38 Inhibitor Screening Assay Kit, glycohydrolase activity, fluorescence)). Settings: CD38 hydrolase enzyme, 30 min preincubation at room temperature, F-NAD substrate, excitation 300 nm, emission 410 nm; read-out: hCD38 IC50.
Assay type: biochemical
Experimental: CD38 hydrolase buffer (4×) was thawed on ice and 1×CD38 hydrolase buffer was prepared by diluting 4×CD38 hydrolase buffer with water. CD38 hydrolase enzyme was diluted to […] with 1×CD38 hydrolase buffer (10 ng/well). Master mix was prepared by mixing equal volumes of water and CD38 hydrolase buffer (4×) and 10 μl of the mix was added to all the wells. Following master mix addition, 10 μl of the inhibitors and 20 μl of CD38 hydrolase enzyme were added to the wells. For wells designated blank, 10 μl and 20 μl of 1× CD38 hydrolase buffer was added respectively in place of […]. The plate was covered and incubated 30 min at room temperature with slow shaking at 400 rpm. After 30 min incubation, the plate was removed and 10 μl of diluted F-NAD substrate was added to all the wells. The plate is incubated for 10 min, spun at 1200 rpm for 30 secs to remove bubbles and read in Tecan Spark using a fluorometer setting of excitation 300 nm and emission 410 nm. The reading for the blank was subtracted from all the values. IC50 for the test compounds were determined by using Graphpad prism software v7.0.

By UniProt entry, the sequences of proteins in these tests, tags left out.
UniProt P28907, whole entry: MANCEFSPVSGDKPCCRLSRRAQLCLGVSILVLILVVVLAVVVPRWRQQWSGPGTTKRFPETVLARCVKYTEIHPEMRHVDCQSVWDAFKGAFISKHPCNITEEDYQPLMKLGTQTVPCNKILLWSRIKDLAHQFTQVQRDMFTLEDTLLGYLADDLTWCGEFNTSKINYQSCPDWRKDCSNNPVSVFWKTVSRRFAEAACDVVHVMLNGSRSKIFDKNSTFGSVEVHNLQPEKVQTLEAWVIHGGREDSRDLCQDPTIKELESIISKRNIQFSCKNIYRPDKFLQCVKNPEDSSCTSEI

| Structure (SMILES) | IC50 [nM] |
| --- | --- |
| COCCO[C@H]1CC[C@H](NC(=O)c2cc(-n3ccnc3)cc(-c3cncs3)n2)CC1 [Ex. 10, 4-(1H-imidazol-1-yl)-N-((1r,4r)-4-(2-methoxyethoxy)cyclohexyl)-6-(thiazol-5-yl)picolinamide] | 4900 |
| COCCO[C@H]1CC[C@H](NC(=O)c2cc(-c3cnn(C)c3)cc(-n3ccnc3)n2)CC1 [Ex. 12, 6-(1H-imidazol-1-yl)-N-((1r,4r)-4-(2-methoxyethoxy)cyclohexyl)-4-(1-methyl-1H-pyrazol-4-yl)picolinamide] | 5 |
| COCCO[C@H]1CC[C@H](NC(=O)c2cc(-c3cnn(C(C)C)c3)cc(-n3ccnc3)n2)CC1 [Ex. 13, 6-(1H-imidazol-1-yl)-4-(1-isopropyl-1H-pyrazol-4-yl)-N-((1r,4r)-4-(2-methoxyethoxy)cyclohexyl)picolinamide] | 40 |
| COCCO[C@H]1CC[C@H](NC(=O)c2cc(N)cc(-n3ccnc3)n2)CC1 [Ex. 15, 4-amino-6-(1H-imidazol-1-yl)-N-((1r,4r)-4-(2-methoxyethoxy)cyclohexyl)picolinamide] | 42 |
| COCCO[C@H]1CC[C@H](NC(=O)c2cc(-n3ccnc3)cc(-n3ccnc3)n2)CC1 [Ex. 16, 4,6-di(1H-imidazol-1-yl)-N-((1r,4r)-4-(2-methoxyethoxy)cyclohexyl)picolinamide] | 6.8 |
| COCCO[C@H]1CC[C@H](NC(=O)c2cc(-c3cncs3)cc(-n3ccnc3)n2)CC1 [Ex. 17, 6-(1H-imidazol-1-yl)-N-((1r,4r)-4-(2-methoxyethoxy)cyclohexyl)-4-(thiazol-5-yl)picolinamide] | 7 |
| COCCO[C@H]1CC[C@H](NC(=O)c2ccnc(-n3ccnc3)c2)CC1 [Ex. 21, 2-(1H-imidazol-1-yl)-N-((1r,4r)-4-(2-methoxyethoxy)cyclohexyl)isonicotinamide] | 996 |
| COCCO[C@H]1CC[C@H](NC(=O)c2cc(-c3cnn(C)c3)nc(-n3ccnc3)n2)CC1 [Ex. 27, 2-(1H-imidazol-1-yl)-N-((1r,4r)-4-(2-methoxyethoxy)cyclohexyl)-6-(1-methyl-1H-pyrazol-4-yl)pyrimidine-4-carboxamide] | 4.2 |

Source: patent US12514858B2, “CD38 inhibitors” (Astellas Engineered Small Molecules US, Incorporated, priority 2020, dated 2026)
